Laboratory results published in patent publication US10738049B2, “N-{3-[3-cyclopropyl-5-(2-fluoro-4-iodophenylamino)-6,8-dimethyl-2,4,7-trioxo-3,4,6,7-tetrahydro-2H-pyrido[4,3-D]pyrimidin-1-YL]-phenyl}-cyclopropanecarboxamide dimethyl sulfoxide solvate as an MEK1/2 inhibitor” (R-PHARM JOINT STOCK COMPANY (R-PHARM, JSC), priority 2016, dated 2020).

Test: Body weight and deaths during treatment in the xenograft study
Details: doses up to and including 3 mg/kg, 21 days

Cc1c(=O)n(C)c(Nc2ccc(I)cc2F)c2c(=O)n(C3CC3)c(=O)n(-c3cccc(NC(=O)C4CC4)c3)c12 [Compound of formula 1, N-{3-[3-cyclopropyl-5-(2-fluoro-4-iodophenylamino)-6,8-dimethyl-2,4,7-trioxo-3,4,6,7-tetrahydro-2H-pyrido[4,3-d]pyrimidin-1-yl]-phenyl}-cyclopropanecarboxamide dimethyl sulfoxide solvate]
Animal weights versus control group: not significantly different
